{"source": "paper PMC4869338", "about": "“Pre-clinical evaluation of CYP 2D6 dependent drug–drug interactions between primaquine and SSRI/SNRI antidepressants” (Malaria Journal, 2016)", "origin": "cited, not measured here", "settings": "in vivo; cited from earlier work"}
{"substance": "dihydroartemisinin-piperaquine", "values": [{"measurement": "primaquine exposure on co-administration", "value": "significantly higher primaquine exposure"}]}
{"substance": "pyronaridine-artesunate", "values": [{"measurement": "primaquine exposure on co-administration", "value": "significantly higher primaquine exposure"}]}
